Source: patent EP4011367A1, “COMPOUNDS FOR USE IN THE TREATMENT OF COVID-19” (priority 2020, dated 2022)

Molecular target: T1, SARS-CoV-2 3CL-Pro (Severe acute respiratory syndrome coronavirus 2, UniProt P0DTD1)
T1 construct: SARS-CoV-2 main protease (3CL-Pro), also termed M-Pro
Assay: biochemical
Settings: for inhibition at 20 µM: read-out: 3CL-Pro Inhibition [%] Primary Screen (20 µM)

Row | SMILES | inhibition at 20 µM [%] | 3CL-Pro Inhibition [%] Primary Screen (20 µM) [%]
1 | S=C(S)N1CCCC1 [compound 35, N-pyrrolidin-1-ylcarbamodithioate] | 101 | 
2 | Cc1ccc(-n2sc(=O)n(Cc3ccc(F)cc3)c2=O)cc1 [compound 53, 4-(4-Fluorobenzyl)-2-(4-methylphenyl)-1,2,4-thiadiazolidine-3,5-dione] | 101 | 
3 | Cc1c(-c2cnccn2)ssc1=S [compound 59, 4-Methyl-5-(2-pyrazinyl)-3H-1,2-dithiole-3-thione] | 101 | 
4 | O=C(O)c1ccccc1-c1c2cc(Br)c(=O)cc-2oc2[c]([Hg][OH])c(O)c(Br)cc12 [compound 62, [2,7-dibromo-9-(2-carboxyphenyl)-3-hydroxy-6-oxoxanthen-4-yl]mercury;hydrate] |  | 101
